Target: human cannabinoid type 1 receptor (Homo sapiens, UniProt P21554)
Test: CB1 receptor competitive binding assay with [3H]CP-55,940
Conditions: read-out: CB1 Ki

Sequences of proteins named here, by UniProt entry; tags and fusion partners are left off.
UniProt P21554, whole entry: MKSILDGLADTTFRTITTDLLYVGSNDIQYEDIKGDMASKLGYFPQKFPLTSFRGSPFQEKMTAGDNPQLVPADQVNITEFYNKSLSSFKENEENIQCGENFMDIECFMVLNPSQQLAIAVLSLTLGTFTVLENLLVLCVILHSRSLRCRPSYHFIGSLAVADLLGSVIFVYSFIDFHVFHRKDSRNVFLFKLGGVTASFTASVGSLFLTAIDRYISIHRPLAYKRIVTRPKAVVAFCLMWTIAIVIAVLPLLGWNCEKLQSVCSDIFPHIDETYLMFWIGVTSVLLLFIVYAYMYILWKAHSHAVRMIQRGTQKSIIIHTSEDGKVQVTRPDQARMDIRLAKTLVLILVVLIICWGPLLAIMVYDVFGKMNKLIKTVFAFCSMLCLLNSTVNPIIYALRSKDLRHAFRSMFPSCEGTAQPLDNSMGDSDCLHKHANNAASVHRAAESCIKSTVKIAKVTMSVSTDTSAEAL

For SR144528 [reference compound], the Ki was over 2.82 µM.
